# Laboratory results published in patent US7976843B2, “Method for screening peptides for use in immunotherapy” (Institut National de la Santa et de la Recherche Medicale …, priority 2000, dated 2011).
# Target: HLA A2.1 molecule (Homo sapiens, UniProt P04439, D140Y/D185E/D98H/E176V/E277Q/G131W/G231S/I119V/I121R/I166T/I218V/L300P/L318F/N151K/N90K/P208A/P217A/Q86G/Q94H/R138H/R169H/T345S)
# Assay: Stability of the peptide/HLA A2.1 complex (DC50) on T2 cells, flow cytometry
# Format: binding
# Protocol: For each incubation time, the cells are then labeled, as indicated above, with the BB7.2 antibody, and analyzed by flow cytometry in order to evaluate the amount of peptide/HLA A2.1 complex present at their surface. […] The DC50 (dissociation complex: DC) is defined as being the time required for the loss of 50% of the HLA A2.1/peptide complexes stabilized at t=0.
sequence,measurement,value
NLQSLTNLL [HBV pol 985],DC50,<2 h
same,DC50 Y1-DC50 WT,>6 h
